Amino acid sequences for entries named in this document (tags omitted). A change or cut given only in a name is not applied to a line headed by its entry.
UniProt P38062: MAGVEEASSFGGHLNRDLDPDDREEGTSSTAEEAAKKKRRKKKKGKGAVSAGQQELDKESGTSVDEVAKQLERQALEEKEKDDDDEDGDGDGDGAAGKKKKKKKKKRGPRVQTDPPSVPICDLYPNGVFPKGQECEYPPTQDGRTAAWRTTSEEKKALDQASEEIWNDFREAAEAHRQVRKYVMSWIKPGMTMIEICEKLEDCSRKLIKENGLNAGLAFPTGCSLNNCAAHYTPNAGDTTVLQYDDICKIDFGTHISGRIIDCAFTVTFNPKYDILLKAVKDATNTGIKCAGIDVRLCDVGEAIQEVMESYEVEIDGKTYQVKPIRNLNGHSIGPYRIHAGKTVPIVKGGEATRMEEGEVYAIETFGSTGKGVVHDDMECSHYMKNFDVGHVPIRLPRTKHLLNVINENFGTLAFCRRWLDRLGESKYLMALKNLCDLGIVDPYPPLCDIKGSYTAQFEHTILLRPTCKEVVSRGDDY

According to patent publication US20200030278A1, “PHARMACEUTICAL COMPOSITIONS OF METAP-2 INHIBITORS” (Zafgen, Inc., priority 2017, published 2020):

Legend:
[1] = Pharmacokinetics after subcutaneous administration in humans; type: in vivo, Human
Excerpt: The pharmacokinetic profiles following intravenous administration of beloranib or Compound A reflect differences in how each compound is distributed and cleared that are independent of pharmaceutical properties that affect absorption from subcutaneously administered compound. In rat and dog studies with intravenous administration, Compound A has a lower Vdss and a higher CL than beloranib, as shown in Table 2. Although Compound A has not been administered to humans intravenously, the rapid absorption profile observed with subcutaneous dosing permits estimation of Vdss and CL in humans for comparison with intravenous PK of beloranib, as shown in Table 3. Similar to non-clinical species, Compound A has a lower Vdss and a higher CL than beloranib. Thus, similar differences in the pharmacokinetic properties of Compound A and beloranib have been observed in non-clinical toxicology species and humans.
Assessment of differences in pharmacokinetics following subcutaneous administration reflect both differences in the pharmacokinetic properties of the compounds and differences in pharmaceutical factors that affect absorption of the formulations from the injection sites. […] In all cases, Tmax was marked shorter and Cmax was much higher for Compound A, while AUC was similar (note: results for dog have not been normalized for dose).

MetAP-2 = MetAP-2 (Rattus norvegicus, UniProt P38062); settings: rat model
[2] = Tissue distribution of radiolabeled compounds in rats after subcutaneous administration; type: in vivo
Excerpt: Beloranib was extensively (>95%) bound to plasma proteins in blood from all non-clinical species tested and humans. However, Compound A was markedly less bound to plasma proteins (40-70% in rat and dog and 25-35% in human) and binding tended to decrease with increasing concentration, as shown in Table 6. The higher unbound fraction of Compound A may have contributed to the more rapid clearance of Compound A in pharmacokinetic studies, and to differences in tissue distribution. The tissue distribution of beloranib and Compound A was investigated in rats using radiolabeled compounds. Data from a long-term whole body autoradioluminography (WBAL) study with beloranib dosed subcutaneously at 1 mg/kg was compared with data from a short-term tissue dissection (TD) study with Compound A dosed subcutaneously at 6 mg/kg. For this assessment, the results from the Compound A study were normalized (assuming direct linearity) to a 1 mg/kg dose.

[3] = Protein binding in dog plasma (dialysis); type: in vitro ADME; settings: read-out: % Bound (Mean) (converted)
plasma proteins = experiment: Plasma protein binding, summary over species; type: in vitro ADME
[4] = Protein binding in human plasma (dialysis); type: in vitro ADME; settings: read-out: % Bound (Mean) (converted)
[5] = Toxicology study in the rat, s.c. Q3D for 28 days; type: in vivo, Sprague Dawley rats; settings: rats, ≥2 mg/kg s.c. Q3D, 4 weeks
Protocol: Male and female Sprague Dawley rats 9-10 weeks of age (Envigo RMS, Inc., Indianapolis, Ind. or Orient Bio Inc., Gyeonggi-do, South Korea) were individually housed at the testing facility. Rats (n=15/group) received Compound A (2, 6, 25 mg/kg, or vehicle) Q3D for 28 days. […]. Animals were allocated to treatment groups based on body weight, and body weight and food consumption were recorded weekly. […] At necropsy, macroscopic pathologic findings were recorded, sperm motility and morphology were determined, selected organs were weighed, and selected tissues were collected for microscopic examination.

| Structure (SMILES) | plasma concentration relative to Cmax ([1]; 2.4 mg subcutaneous dose, four hours after dosing) | MetAP-2 binding in target tissues (MetAP-2) | duration of high levels of exposure to the tissues relative to beloranib [2] | radioactivity in kidney and liver relative to beloranib [2] | radioactivity in fat and bone relative to beloranib ([2]; dose-normalized) | fraction unbound at 60 nM ([3]; 60 nM) | fraction unbound at 120 nM ([3]; 120 nM) | fraction unbound at 240 nM ([3]; 240 nM) | fraction unbound ([3]; All concentrations) | fraction bound to plasma proteins (plasma proteins; human, blood from all non-clinical species tested and humans, read-out: bound to plasma proteins) | fraction bound to plasma proteins (plasma proteins; summary, species not specified, read-out: Plasma protein binding (converted)) | fraction unbound at 30 nM ([4]; 30 nM) | fraction unbound at 240 nM ([4]; 240 nM) | fraction unbound at 480 nM ([4]; 480 nM) | fraction unbound at 1000 nM ([4]; 1000 nM) | fraction unbound ([4]; All concentrations) | plasma concentration relative to Cmax ([1]; 2 mg subcutaneous dose, 24 hours after dosing) | plasma concentration relative to Cmax ([1]; 2 mg subcutaneous dose, four hours after dosing) | Histopathology, target organs: finding, grade [5] | Peak and residual radioactivity in tissues, beloranib relative to dose-normalized Compound A ([2]; radiolabeled compounds, tissues generally (e.g. testis)) |
| --- | --- | --- | --- | --- | --- | --- | --- | --- | --- | --- | --- | --- | --- | --- | --- | --- | --- | --- | --- | --- |
| CO[C@@H]1[C@H](OC(=O)N2CC(CCN3CCOCC3)C2)CC[C@]2(CO2)[C@H]1[C@@]1(C)O[C@@H]1CC=C(C)C [Compound A] | less than 2 % of the Cmax | bound MetAP-2 effectively | much shorter | similar | higher | – | – | – | – | – | – | – | – | – | – | – | – | – | – | – |
| CO[C@@H]1[C@H](OC(=O)/C=C/c2ccc(OCCN(C)C)cc2)CC[C@]2(CO2)[C@H]1[C@@]1(C)O[C@@H]1CC=C(C)C [beloranib, reference compound] | – | – | – | – | – | 0.052 | 0.0522 | 0.0466 | 0.051 | < 0.05 | 0.05 | 0.0508 | 0.048 | 0.0472 | 0.0536 | 0.0508 | approximately 5.6 % of Cmax | approximately 50 % of Cmax | Spleen: decreased cellularity,; also recorded: Bone marrow: decreased; also recorded: Thymic atrophy: lymphoid; also recorded: Testes: germ cell | 2-5 fold |

Entries after “also recorded” stand apart in the source; their conditions may differ. Where two headings read alike, the source gives them in different places.
